Assay results reported in patent EP4603105A1, “PHARMACEUTICAL COMPOSITION CONTAINING CYCLIC COMPOUND HAVING SELECTIVE KRAS INHIBITORY EFFECT AGAINST HRAS AND NRAS” (CHUGAI SEIYAKU KABUSHIKI KAISHA, priority 2022, dated 2024).
Where two headings read alike, the source gives them in different places.

Sequences of proteins named here, by UniProt entry; tags and fusion partners are left off. Residues count along the entry.
UniProt P01112, whole entry: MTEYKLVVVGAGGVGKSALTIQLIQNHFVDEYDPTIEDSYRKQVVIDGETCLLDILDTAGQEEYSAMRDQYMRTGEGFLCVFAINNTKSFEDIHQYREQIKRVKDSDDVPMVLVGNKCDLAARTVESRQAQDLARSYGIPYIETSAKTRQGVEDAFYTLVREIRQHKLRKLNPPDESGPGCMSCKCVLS
UniProt P01111, whole entry: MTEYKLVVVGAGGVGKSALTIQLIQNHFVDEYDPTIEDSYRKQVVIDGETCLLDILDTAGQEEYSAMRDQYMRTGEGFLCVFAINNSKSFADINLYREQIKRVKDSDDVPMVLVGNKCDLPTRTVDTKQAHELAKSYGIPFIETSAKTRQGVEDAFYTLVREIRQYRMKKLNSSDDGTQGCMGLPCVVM
UniProt P01116, 1-188 isoform 2: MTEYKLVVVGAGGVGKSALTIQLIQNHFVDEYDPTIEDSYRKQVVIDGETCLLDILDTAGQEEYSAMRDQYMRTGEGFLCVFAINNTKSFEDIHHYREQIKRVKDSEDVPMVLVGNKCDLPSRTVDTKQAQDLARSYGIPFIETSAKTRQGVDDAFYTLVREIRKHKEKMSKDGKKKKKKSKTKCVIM

How the values were obtained:
HRAS wild-type protein = HRAS wild-type protein (Homo sapiens, UniProt P01112); assay: Binding to HRAS by surface plasmon resonance (SPR), KD and KD ratio to KRAS
[1] = target: GDP-bound NRAS wild-type protein (Homo sapiens, UniProt P01111); assay: Binding to NRAS by surface plasmon resonance (SPR), KD and KD ratio to KRAS
[2] = target: GDP-bound KRAS wild-type protein (Homo sapiens, UniProt P01116); assay: Binding to KRAS by surface plasmon resonance (SPR), dissociation constant KD
[3] = tested on: human lung cancer strain NCI-H441; assay: NCI-H441 cell proliferation inhibitory activity (CellTiter-Glo, 4 days); format: cell-based
[4] = ratio of KD with respect to HRAS wild-type protein to KD with respect to KRAS
[5] = ratio of KD with respect to GDP-bound NRAS wild-type protein to KD with respect to KRAS
[6] = read-out: KRAS KD, Single Cycle Kinetics, 1:1 binding model
[7] = read-out: NCl-H441 IC50, 50% proliferation inhibitory concentration, four days
[8] = ratio of KD for HRAS wild-type protein to KD for KRAS
[9] = ratio of KD for GDP-bound NRAS wild-type protein to KD for KRAS
[10] = read-out: KRAS KD, 1:1 binding model

| SMILES | HRAS /KRAS (HRAS wild-type protein; [4]) | NRAS /KRAS [1, 5] | Kd [2, 6] | IC50 [3, 7] | HRAS /KRAS (HRAS wild-type protein; [8]) | NRAS /KRAS [1, 9] | Kd [2, 10] | IC50 ([3]; read-out: NCl-H441 IC50, NCI-H441 cells, 4 days) | IC50 ([3]; read-out: NCl-H441 IC50, NCI-H441 cells, four days) |
| --- | --- | --- | --- | --- | --- | --- | --- | --- | --- |
| CCOC1CC2C(=O)NC3(CCC3)C(=O)N(C)C(C3CCCC3)C(=O)N(C)C(C(=O)N3CCOCC3)CC(=O)N(C)C(Cc3cccnc3)C(=O)NC(C(C)CC)C(=O)N(C)CC(=O)N(C)C3CCCCCN(C3=O)C(Cc3ccc(F)cc3)C(=O)N(C)CC(=O)NC(CCc3cc(F)c(C(F)(F)F)c(F)c3)C(=O)N2C1 (centres unmarked) | B (a compound having 3 or more and less than 10 is denoted as B) | B (a compound having 3 or more and less than 10 is denoted as B) | 0.08 nM | 134 nM | – | – | – | – | – |
| CCC[C@H]1C(=O)N[C@@H]([C@@H](C)CC)C(=O)N(C)CC(=O)N(C)[C@H]2C/C=C\CCN(C2=O)[C@@H](Cc2ccc(C(F)(F)F)cc2)C(=O)N(C)CC(=O)N[C@@H](CCc2cc(F)c(C(F)(F)F)c(F)c2)C(=O)N2C[C@H](OCC)C[C@H]2C(=O)NC2(CCC2)C(=O)N(C)[C@@H](C(CC)CC)C(=O)N(C)[C@H](C(=O)N(C)C)CC(=O)N1C | A (a compound having 10 or more and less than 20 is denoted as A) | AA (a compound having 20 or more is denoted as AA) | 0.19 nM | 21.3 nM | – | – | – | – | – |
| CC[C@H](C)[C@@H]1NC(=O)[C@H](CC(C)C)N(C)C(=O)C[C@@H](C(=O)N2CCOCC2)N(C)C(=O)[C@H](C2CCCC2)N(C)C(=O)C2(CCC2)NC(=O)[C@@H]2CCCN2C(=O)[C@H](CCc2cc(F)c(C(F)(F)F)c(F)c2)NC(=O)CN(C)C(=O)[C@H](Cc2ccc(C(F)(F)F)cc2)N2C[C@H](C)CC[C@@H](C2=O)N(C)C(=O)[C@@H]2CCN2C1=O | B (a compound having 3 or more and less than 10 is denoted as B) | B (a compound having 3 or more and less than 10 is denoted as B) | 0.8 nM | – | – | – | – | – | – |
| CC[C@H](C)[C@@H]1NC(=O)[C@H](CC)N(C)C(=O)C[C@@H](C(=O)N2CCOCC2)N(C)C(=O)[C@H](C2CCCC2)N(C)C(=O)C2(CCC2)NC(=O)[C@@H]2CCCN2C(=O)[C@H](CCc2cc(F)c(C(F)(F)F)c(F)c2)NC(=O)CN(C)C(=O)[C@H](Cc2ccc(C(F)(F)F)cc2)N2C[C@H](C)CC[C@@H](C2=O)N(C)C(=O)[C@@H]2CCN2C1=O | B (a compound having 3 or more and less than 10 is denoted as B) | B (a compound having 3 or more and less than 10 is denoted as B) | 0.72 nM | 80.4 nM | – | – | – | – | – |
| CCCC1C(=O)NC(C(C)CC)C(=O)N(C2CC2)CC(=O)N(C)C2CC=CCCN(C2=O)C(Cc2ccc(C)cc2)C(=O)N(C)CC(=O)NC(CCc2cc(F)c(C(F)(F)F)c(F)c2)C(=O)N2CC(OCC)CC2C(=O)NC2(CC(C)(C)C2)C(=O)N(C)C(CC2CCC2)C(=O)N(C)C(C(=O)N(C)C)CC(=O)N1C (centres unmarked) | – | – | – | – | A (a compound having 10 or more and less than 20 is denoted as A) | A (a compound having 10 or more and less than 20 is denoted as A) | 4.3 nM | 91.1 nM | – |
| CCOC1CC2C(=O)NC3(CCC3)C(=O)N(C)C(C3CCCC3)C(=O)N(C)C(C(=O)N3CCOCC3)CC(=O)N(C)C(Cc3cccc(C#N)c3)C(=O)NC(C(C)CC)C(=O)N(C)CC(=O)N(C)C3CCCCCN(C3=O)C(Cc3ccc(C(F)(F)F)cc3)C(=O)N(C)CC(=O)NC(CCc3cc(F)c(C(F)(F)F)c(F)c3)C(=O)N2C1 (centres unmarked) | B (a compound having 3 or more and less than 10 is denoted as B) | B (a compound having 3 or more and less than 10 is denoted as B) | 0.5 nM | 124 nM | – | – | – | – | – |
| CCC[C@H]1C(=O)N[C@@H]([C@@H](C)CC)C(=O)N2C[C@@H](OC)C[C@H]2C(=O)N(C)[C@H]2C/C=C\CCN(C2=O)[C@@H](Cc2ccc(C)cc2)C(=O)N(C)CC(=O)N[C@@H](CCc2ccc(C(F)(F)F)c(Cl)c2)C(=O)N2C[C@H](OCC)C[C@H]2C(=O)NC2(CC(C)(C)C2)C(=O)N(C)[C@@H](C2CCCC2)C(=O)N(C)[C@H](C(=O)N(C)C)CC(=O)N1C | – | – | – | – | B (a compound having 3 or more and less than 10 is denoted as B) | A (a compound having 10 or more and less than 20 is denoted as A) | 0.32 nM | – | – |
| CCCCO[C@@H]1C[C@H]2C(=O)NC3(CCC3)C(=O)N(C)[C@@H](C3CCCC3)C(=O)N(C)[C@H](C(=O)N3CCOCC3)CC(=O)N(C)[C@@H](CC(C)C)C(=O)N[C@@H]([C@@H](C)CC)C(=O)N(C)CC(=O)N(C)[C@H]3CCCCN(C3=O)[C@@H](Cc3ccc(C(F)(F)F)cc3)C(=O)N(C)CC(=O)N[C@@H](CCc3cc(F)c(C(F)(F)F)c(F)c3)C(=O)N2C1 | – | – | – | – | B (a compound having 3 or more and less than 10 is denoted as B) | C (A compound having a KD ratio of 0.1 or more and less than 3 is denoted as C) | – | – | 7.6 nM |
| CCCO[C@@H]1C[C@H]2C(=O)NC3(CCC3)C(=O)N(C)[C@@H](C3CCCC3)C(=O)N(C)[C@H](C(=O)N3CCOCC3)CC(=O)N(C)[C@@H](CC(C)C)C(=O)N[C@@H]([C@@H](C)CC)C(=O)N(C)CC(=O)N(C)[C@H]3CCCCCN(C3=O)[C@@H](Cc3ccc(C(F)(F)F)cc3)C(=O)N(C)CC(=O)N[C@@H](CCc3cc(F)c(C(F)(F)F)c(F)c3)C(=O)N2C1 | B (a compound having 3 or more and less than 10 is denoted as B) | – | 0.6 nM | 153 nM | – | – | – | – | – |
| CCOC1CC2C(=O)NC3(CCC3)C(=O)N(C)C(C3CCCC3)C(=O)N(C)C(C(=O)N(C)C)CC(=O)N(C)C(Cc3ccsc3)C(=O)NC(C(C)CC)C(=O)N(C)CC(=O)N(C)C3CCCCCN(C3=O)C(Cc3ccc(C(F)(F)F)cc3)C(=O)N(C)CC(=O)NC(CCc3cc(F)c(C(F)(F)F)c(F)c3)C(=O)N2C1 (centres unmarked) | B (a compound having 3 or more and less than 10 is denoted as B) | B (a compound having 3 or more and less than 10 is denoted as B) | 0.23 nM | – | – | – | – | – | – |
| CCC[C@H]1C(=O)N[C@H]([C@@H](C)CC)C(=O)N2C[C@@H](OC)C[C@H]2C(=O)N(C)[C@H]2C/C=C\CCN(C2=O)[C@@H](Cc2ccc(C)cc2)C(=O)N(C)CC(=O)N[C@@H](CCc2ccc(C(F)(F)F)c(OC)c2)C(=O)N2C[C@H](OCC)C[C@H]2C(=O)NC2(CCC2)C(=O)N(C)[C@@H](C2CCCC2)C(=O)N(C)[C@H](C(=O)N(C)C)CC(=O)N1C | – | – | – | – | B (a compound having 3 or more and less than 10 is denoted as B) | A (a compound having 10 or more and less than 20 is denoted as A) | 0.4 nM | – | – |
| CCOC1CC2C(=O)NC3(CCC3)C(=O)N(C)C(C3CCCC3)C(=O)N(C)C(C(=O)N(C)C)CC(=O)N(C)C(Cc3ccsc3)C(=O)NC(C(C)CC)C(=O)N(C)CC(=O)N(C)C3CCCCCN(C3=O)C(Cc3ccc(F)cc3)C(=O)N(C)CC(=O)NC(CCc3cc(F)c(C(F)(F)F)c(F)c3)C(=O)N2C1 (centres unmarked) | B (a compound having 3 or more and less than 10 is denoted as B) | B (a compound having 3 or more and less than 10 is denoted as B) | 0.19 nM | – | – | – | – | – | – |
